Literature values as cited in patent US20030013684A1, “Agricultural composition” (priority 2001, published 2003).

Settings: cited from earlier work

SMILES | water solubility
COc1cc(OC)nc(NC(=O)NS(=O)(=O)c2ncccc2C(=O)N(C)C)n1 [nicosulfron] | 12200 ppm
O=C1CCc2cccc3c2N1CC3 [pyroquirone] | 4000 ppm
